Test results from US20140315797A1, “Novel N-Terminally Modified Insulin Derivatives” (priority 2010, published 2014).

System: duodenum lumen enzymes
Assay: Degradation of insulin analogs using duodenum lumen enzymes
Settings: degradation half time divided by that of reference insulin; rat duodenum enzymes, pH 7.4, 37° C.

A1(N,N-Dimethyl), A14E, B1(N,N-dimethyl), desB27, B29K(N^εoctadecanedioyl-gGlu-2xOEG), desB30 human insulin [Example 6]
Duodenum degradation. Relative stability vs. A14E, B25H, desB30 human insulin: 3.8
